Patent publication US20060051395A1 (AFFINERGY, published 2006)

T1: Bone Morphogenic Protein 2 (BMP-2) (UniProt P12643 283-396)
T1 construct: Bought from Medtronic; In the phage ELISAs it was biotinylated with NHS-biotin (about one biotin per molecule) and held on streptavidin plates; In the peptide assays it was unlabelled
T1 sequence (looked up): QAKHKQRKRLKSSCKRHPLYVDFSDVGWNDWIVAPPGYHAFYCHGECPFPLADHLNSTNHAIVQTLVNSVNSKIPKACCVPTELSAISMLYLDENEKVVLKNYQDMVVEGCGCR


biological target: T1, Bone Morphogenic Protein 2 (BMP-2); assay: estimated affinity from solution-phase binding of biotinylated peptide and BMP-2, capture on streptavidin plate, anti-BMP antibody detection
Procedure: To confirm these BMP binding results, the peptides were also tested in an alternate assay format in which the peptide and BMP2 were allowed to bind in solution and then assayed. Briefly, the peptides were synthesized with a biotin group attached to the E amino group of a lysine residue at the C-terminus of the peptide. The biotinylated peptides (0-12 pmoles) were mixed with BMP-2 (0-25 pmoles) in solution and allowed to incubate at 37° C. for 30 minutes in a polypropylene plate. The solutions were transferred to a streptavidin-coated plate and incubated for 1 hour at 37° C. to capture the biotinylated peptides. Plates were washed in TBS-Tween™ 20 and then incubated with an anti-BMP antibody (1:1000 dilution; R&D systems) for 1 hour at RT. After washing, an alkaline phosphatase-labeled secondary antibody was then added to the plate and incubated at RT for 30 minutes. The plates were washed with TBS-Tween™ 20 and the antibody binding was detected using the chromogenic AP substrate pNPP.

Row | Binder | Kd
1 | SRSSDSAFSSFSALEGSVVSR (biotin on the epsilon amino group of a lysine residue at the C-terminus, Synthetic form of the peptide of clone AP02-48; not shown: C-terminal biotinylated lysine; any linker before it is not spelled out for this peptide) [AFF-2006] | 21 nM
2 | SSDWGVVASAWDAFEALDASR (biotin on the epsilon amino group of a lysine residue at the C-terminus, Synthetic form of the peptide of clone AP02-45; not shown: C-terminal biotinylated lysine; any linker before it is not spelled out for this peptide) [AFF-2011] | 55 nM
3 | SRGGEAAAGAWVSFSALESSR (biotin on the epsilon amino group of a lysine residue at the C-terminus, Synthetic form of the peptide of clone AP02-50; not shown: C-terminal biotinylated lysine; any linker before it is not spelled out for this peptide) [AFF-2007] | 79 nM
